The chains behind the UniProt entries cited, without tags or fusion partners.
UniProt P33535, whole entry: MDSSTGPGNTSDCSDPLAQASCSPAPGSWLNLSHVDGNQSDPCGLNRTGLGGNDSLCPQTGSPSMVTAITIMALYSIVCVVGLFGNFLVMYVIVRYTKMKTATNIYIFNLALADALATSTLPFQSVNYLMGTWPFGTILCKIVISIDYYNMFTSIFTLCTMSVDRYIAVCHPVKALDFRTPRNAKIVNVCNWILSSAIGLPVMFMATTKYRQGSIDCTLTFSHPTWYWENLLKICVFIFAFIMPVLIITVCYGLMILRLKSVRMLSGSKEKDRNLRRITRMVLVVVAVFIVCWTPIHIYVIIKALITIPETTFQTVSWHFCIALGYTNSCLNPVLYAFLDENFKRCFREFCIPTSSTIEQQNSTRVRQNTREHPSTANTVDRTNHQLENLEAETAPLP

In ChEMBL document CHEMBL1151866, “Design and synthesis of novel delta opioid receptor agonists and their pharmacologies” (Bioorg Med Chem Lett, 2009):

Biological target: Mu-type opioid receptor (Rattus norvegicus, UniProt P33535)
Assay: Displacement of [3H]DAMGO from mu opioid receptor in rat cerebellum membrane
Type: cell membranes

Compound Oc1ccc2c3c1O[C@H]1c4[nH]c5ccccc5c4C[C@@]4(O)[C@@H](C2)N(CC2CC2)CC[C@]314 [NALTRINDOLE] has a Ki of 23.6 nM.
